Measured values taken from ChEMBL document CHEMBL4229338, “O6C-20-nor-salvinorin A is a stable and potent KOR agonist” (2018).

Amino acid sequences for entries named in this document (tags omitted). A change or cut given only in a name is not applied to a line headed by its entry.
UniProt P41145: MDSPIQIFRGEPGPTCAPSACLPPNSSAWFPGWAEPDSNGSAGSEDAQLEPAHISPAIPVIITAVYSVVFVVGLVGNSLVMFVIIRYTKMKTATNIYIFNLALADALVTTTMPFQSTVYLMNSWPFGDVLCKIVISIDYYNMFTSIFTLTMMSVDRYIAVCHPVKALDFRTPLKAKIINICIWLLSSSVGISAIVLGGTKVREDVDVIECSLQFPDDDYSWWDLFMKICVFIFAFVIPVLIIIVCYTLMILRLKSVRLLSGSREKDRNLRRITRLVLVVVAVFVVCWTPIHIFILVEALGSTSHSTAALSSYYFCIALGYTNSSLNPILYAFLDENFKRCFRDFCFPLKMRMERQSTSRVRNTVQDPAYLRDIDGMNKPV

Columns and labels:
[1] = target: Kappa-type opioid receptor (Homo sapiens) (UniProt P41145); assay: Agonist activity at human KOR expressed in CHO cells assessed as inhibition of forskolin-stimulated cAMP accumulation after 30 mins by HTRF assay relative to U69,593
[2] = target: Kappa-type opioid receptor (Homo sapiens) (UniProt P41145); assay: Agonist activity at human KOR expressed in CHO cells assessed as induction of beta-arrestin-2 recruitment by enzyme fragment complementation assay relative to U69,593

## COC(=O)[C@@H]1C[C@H](OC(C)=O)C(=O)[C@@H]2[C@H]3C[C@@H](c4ccoc4)CC(=O)[C@@H]3CC[C@]21C
[1]
  Emax: 109%
[2]
  Emax: 87%
